The test relates to IL-17 production from human Th17 cells. The test can be described thus: IL-17 production from human Th17 cells. Type of test: cell-based. The conditions noted are these: CD4+ T, 144 h.

pIC50: −log10 of the molar value.

Broadly, the pIC50 is −log10 of the IC50, conventionally taken in molar units. The low end stands for a high IC50, the high end for a low IC50. The molecule `C[C@@H]1CCC[C@H]1C(=O)N1CCC(c2cn(C)c3ncc(NC(=O)c4cccc(C#N)c4)c(C(F)(F)F)c23)CC1` (racemic) [Example 26, Rac-3-cyano-N-(1-methyl-3-(1-((1S*,2S*)-2-methylcyclopentane-1-carbonyl)piperidin-4-yl)-4-(trifluoromethyl)-1H-pyrrolo[2,3-b]pyridin-5-yl)benzamide] showed a negative logarithm of the IC50 (pIC50) of 8.11.
`C[C@@H]1CCC[C@@H]1C(=O)N1CCC(c2cn(C)c3ncc(NC(=O)c4cccc(C#N)c4)c(C(F)(F)F)c23)CC1` (racemic) [Example 27, Rac-3-cyano-N-(1-methyl-3-(1-((1R*,2S*)-2-methylcyclopentane-1-carbonyl)piperidin-4-yl)-4-(trifluoromethyl)-1H-pyrrolo[2,3-b]pyridin-5-yl)benzamide]: the negative logarithm of the IC50 (pIC50) was 8.08.
The result for `Cc1c(NC(=O)c2cccc(C#N)c2)cnc2c1c(C1CCN(C(=O)[C@H]3C[C@H]4CC[C@@H]3C4)CC1)cn2C` [Example 35, N-(3-(1-((1R,2S,4S)-bicyclo[2.2.1]heptane-2-carbonyl)piperidin-4-yl)-1,4-dimethyl-1H-pyrrolo[2,3-b]pyridin-5-yl)-3-cyanobenzamide] reads 7.84; that for `Cc1c(NC(=O)c2cccc(C#N)c2)cnc2c1c(C1CCN(C(=O)[C@@H]3C[C@@H]4CC[C@H]3C4)CC1)cn2C` [Example 36, N-(3-(1-((1S,2R,4R)-bicyclo[2.2.1]heptane-2-carbonyl)piperidin-4-yl)-1,4-dimethyl-1H-pyrrolo[2,3-b]pyridin-5-yl)-3-cyanobenzamide], 8.18.
The result for `COc1ccc(C(=O)Nc2cnc3c(c(C4C5CC[C@H]4CN(C(=O)C(C)C)C5)cn3C)c2C(F)(F)F)cc1C#N` (stereo partly drawn) [Example 78, 3-cyano-N-(3-((1R,5S,8r)-3-isobutyryl-3-azabicyclo[3.2.1]octan-8-yl)-1-methyl-4-(trifluoromethyl)-1H-pyrrolo[2,3-b]pyridin-5-yl)-4-methoxybenzamide] reads 8.40; that for `Cc1c(NC(=O)c2cccc(C#N)c2)cnc2c1c([C@@H]1CCN(C(=O)[C@H](C)C(F)(F)F)C[C@@H]1C)cn2C` [Example 89, 3-cyano-N-(1,4-dimethyl-3-((3R,4R)-3-methyl-1-((S)-3,3,3-trifluoro-2-methylpropanoyl)piperidin-4-yl)-1H-pyrrolo[2,3-b]pyridin-5-yl)benzamide], 7.78.
The same measure for `Cc1c(NC(=O)c2cccc(C#N)c2)cnc2c1c(C1[C@@H]3CC[C@H]1CN(C(=O)C(C)C)C3)cn2C` (stereo partly drawn) [Example 98, 3-cyano-N-(3-((1R,5S,8r)-3-isobutyryl-3-azabicyclo[3.2.1]octan-8-yl)-1,4-dimethyl-1H-pyrrolo[2,3-b]pyridin-5-yl)benzamide]: 6.56.

Values taken from patent US9670201B2, “Methyl- and trifluoromethyl-substituted pyrrolopyridine modulators of RORC2 and methods of use thereof” (Pfizer Inc., priority 2014, dated 2017).
